Results as given in paper PMC8187479, “Sugar phosphate activation of the stress sensor eIF2B” (Nature Communications, 2021).

Molecular target: T1, eIF2Bα (Homo sapiens, UniProt Q14232)
T1 construct: made in house; host or cells: E. coli BL21(DE3)
T1 sequence (Q14232 1-305): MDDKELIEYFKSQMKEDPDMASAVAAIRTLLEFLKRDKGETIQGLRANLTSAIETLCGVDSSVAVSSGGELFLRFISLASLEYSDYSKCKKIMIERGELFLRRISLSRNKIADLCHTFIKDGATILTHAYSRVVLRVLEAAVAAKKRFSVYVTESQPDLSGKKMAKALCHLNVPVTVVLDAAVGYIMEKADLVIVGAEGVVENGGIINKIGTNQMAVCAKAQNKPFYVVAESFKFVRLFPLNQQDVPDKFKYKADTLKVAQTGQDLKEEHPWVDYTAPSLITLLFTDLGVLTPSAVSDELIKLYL
Assay: MIDAS (mass spectrometry integrated with equilibrium dialysis) metabolite binding screen
Details: sheet eIF2Ba, metabolites screened in pools 1-4, p-value and q-value given

SMILES: O=C(O)CCCC[C@@H]1SC[C@@H]2NC(=O)N[C@@H]21 [Biotin]
- log2(corrected fold change): 0.08758
